Assay results taken from PubChem BioAssay AID1224905 (ICCB-Longwood Screening Facility, Harvard Medical School, 2016).
About 880 (0.42%) of roughly 210,000 compounds were called active.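 Rule for the calls: active = replicate mean at 85% of control or lower with very high polarization wells dropped (limit read from the data); inactive = the rest.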 For the sample, actives were picked, then their nearest neighbours and some compounds at random.

The chains behind the UniProt entries cited, without tags or fusion partners.
UniProt P08753, whole entry, looked up: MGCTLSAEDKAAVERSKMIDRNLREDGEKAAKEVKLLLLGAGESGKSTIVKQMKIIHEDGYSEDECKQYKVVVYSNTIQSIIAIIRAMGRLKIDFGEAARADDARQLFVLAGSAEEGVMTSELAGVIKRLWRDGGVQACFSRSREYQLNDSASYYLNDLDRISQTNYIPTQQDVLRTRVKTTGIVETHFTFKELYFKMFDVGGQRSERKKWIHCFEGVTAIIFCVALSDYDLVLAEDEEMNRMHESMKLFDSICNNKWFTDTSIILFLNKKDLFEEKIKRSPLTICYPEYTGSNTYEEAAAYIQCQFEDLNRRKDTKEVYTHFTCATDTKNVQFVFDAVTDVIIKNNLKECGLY

target: Guanine nucleotide-binding protein G(i) subunit alpha-3 (Rattus norvegicus) (UniProt P08753); assay: disruptors of GIV-Galphai3 protein-protein interaction – biochemical, fluorescence polarization, FITC-GIV GBA peptide, rat Galphai3, primary screen (AID 1224905); settings: Galpha-i3/FITC-GIV peptide fluorescence polarization, 90 min; active compounds read low; scaled: aluminum fluoride 0%, vehicle 100%;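 note: lower values mean more displacement of the GIV peptide from Galpha-i3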

Percent of control (FP), active:
N#CC1=C2Sc3ccccc3N2CC1=O -54.5%
N#CSc1cc(SC#N)c(N)nc1N 16%
CCOc1cc(/C=C2/C(=O)N(c3nn[nH]n3)N=C2C)cc(Cl)c1OCC 74.3%
c1csc(Nc2nc3cc4c(cc3s2)OCO4)n1 -40.2%
CCN(CC)c1ccc2cc(C(N)=O)/c(=N\NC(=O)c3ccccc3)oc2c1 -46.7%
COc1ccccc1N1C(=O)/C(=C/c2ccc(Cl)cc2)C=C1c1ccccc1 78.1%
CC1=NOC(=O)C1C(c1cccc(Br)c1)c1c(C)[nH]n(-c2ccccc2)c1=O (stereo not given) 48.2%
O=C(O)c1c2ccccc2[nH]c2c1oc1cc(=O)ccc12 81.8%
COC(=O)Cn1nc2c(-c3nc(-c4ccc(Cl)cc4)no3)cccn2c1=O 53.6%
O=c1c(-c2cc3ccccc3o2)[n+]([O-])c2ccccc2n1O 9.86%

Percent of control (FP), inactive:
Cn1nc(-c2ccccc2F)c2cc(C(=O)Oc3ccc4cnccc4c3)sc21 109%
CCOC(=O)c1[nH]c(=O)[nH]c1CSc1nnc(SCc2[nH]c(=O)[nH]c2C(=O)OCC)s1 118%
COc1cccc(N/C(SCc2ccccc2C)=C(/C#N)C(=O)NCCc2ccc(OC)c(OC)c2)c1 104%
CCC(C)OC(=O)C1=C(C)NC(=O)NC1c1ccc(OC)c(OCc2ccccc2)c1 (stereo not given) 99.4%
CCOC(=O)c1ccc(N2N=C(C(F)(F)F)/C(=C/c3cc(Cl)c(O)c(OC)c3)C2=O)cc1 109%
COc1cc(C=C2C(=O)NC(=O)NC2=O)cc(Cl)c1OCCOc1ccc(C)cc1 103%
O=C(C1CCN(c2nc(-c3ccc(Cl)cc3)no2)CC1)N1CCC(N2CCCCC2)CC1 104%
CCSCCOC(=O)C1=C(C)N(C)C(=O)NC1c1ccccc1OCc1ccccc1 (stereo not given) 104%
c1c2c(cc3sc(N4CCCCC4)nc13)OCCO2 101%
CC(=O)N(CCN(C)C)c1nc2cc3c(cc2s1)OCO3 100%
O=C(CCn1nnc2cc(S(=O)(=O)N3CCCC3)ccc21)N1CCN(c2ccccn2)CC1 112%
Cc1c(CNCCc2ccc(S(N)(=O)=O)cc2)c(C(=O)O)c(C)n1Cc1ccc(F)cc1 98.6%
CC1(C)C2CCC1(CS(=O)(=O)Nc1cc(C(=O)N3CCOCC3)ccc1N1CC3CC(C1)c1cccc(=O)n1C3)C(=O)C2 (stereo not given) 106%
O=C(O)c1cc(N2C(=O)C3C4C=CC(CO)(O4)C3C2=O)ccc1Cl (stereo not given) 103%
CCN(CC)c1ccc2cc(C(=O)NC(C)=O)c(=Nc3ccccc3OC)oc2c1 114%
CCN(CC)c1ccc2cc(C(=O)NC(C)=O)c(=Nc3ccc(F)cc3F)oc2c1 117%
O=S(=O)(NCc1ccco1)c1ccc(Cl)cc1 101%
Cc1ccc2ccc3cc(C(=O)NC4CCCC4)nc3c2[nH]1 112%
O=C1/C(=C/c2ccc(Br)cc2)C=C(c2ccccc2)N1c1ccccc1Br 119%
O=C1/C(=C/c2ccc([N+](=O)[O-])cc2)C=C(c2ccccc2)N1c1cccc(Cl)c1Cl 109%
CC(C)NC(=O)C1=CC(c2ccco2)=NS(=O)(=O)N1C 107%
Cc1[nH]c(C(=O)Nc2ccc(F)cc2)c(C)c1S(=O)(=O)N1CCCC1 112%
Cc1cc(C)nc(NS(=O)(=O)c2ccc(NC(=O)C(C)Oc3ccc(Cl)cc3Cl)cc2)n1 (stereo not given) 111%
COc1ccc(C(=O)Oc2ccc(C(c3c(C)[nH]n(-c4ccccc4)c3=O)c3c(C)[nH]n(-c4ccccc4)c3=O)cc2)cc1 111%
Cc1[nH]n(-c2ccccc2)c(=O)c1C(c1ccc(C(F)(F)F)cc1)c1c(C)[nH]n(-c2ccccc2)c1=O 92.3%
O=C(CSc1nnc2ccc(C(=O)NCc3ccccc3)cn12)Nc1ccccc1Br 95.4%
CC(=O)Nc1cccc(NC(=O)c2sc3ncn(CC(=O)Nc4ccc(C)c(Cl)c4)c(=O)c3c2C)c1 107%
CC1(C)CC(=O)C2=C(C1)OC1=C(C(=O)CC(C)(C)C1)C2c1ccc(Cl)cc1 107%
Cn1cc(S(=O)(=O)N2CCCCC2)cc1C(=O)N1CCc2ccccc2C1 107%
COC(=O)c1ccc(C2C(S(=O)(=O)c3ccccc3)=C(O)C(=O)N2c2cccc(C)c2)cc1 (stereo not given) 101%
CCCCN1C(=O)C(C)(C(=O)N2CCN(C)CC2)Oc2cccnc21 (stereo not given) 101%
O=C(CCN1CCOCC1)Nc1cc(C(=O)Nc2ccc(F)c(F)c2)ccc1N1CC2CC(C1)c1cccc(=O)n1C2 (stereo not given) 115%
CCCCN(C)C(=O)CCn1c(=S)[nH]c2c(oc3ccccc32)c1=O 100%
COC(=O)c1c(C)c(=O)[nH]c2ccccc12 102%
CCn1cc(CCN2CCN(S(=O)(=O)c3ccc4c(c3)CCC4)CC2)c2cccnc21 108%
CCN(Cc1ccccc1)C(=O)Cn1c(=O)n(CCc2ccccc2)c(=O)c2ccccc21 102%
O=S(=O)(c1cc(-c2noc(C3CC3)n2)cs1)N1CCN(c2ccc(Cl)cc2)CC1 104%
CCOc1ccc(NC(=O)Nc2ccc(Cn3cnc(-c4nc(-c5ccc(Cl)cc5)no4)c3)cc2)cc1 102%
C=CCNc1ncccc1-c1nc(-c2ccc(Cl)cc2)no1 96.7%
CCCCN(CC)C(=O)c1c[nH]c2ccc(S(=O)(=O)N(C)c3ccc(Br)cc3)cc2c1=O 97.2%
O=C1Nc2ccccc2O/C1=C\c1ccc(C(=O)NCc2ccco2)cc1 103%
CCOc1ccc(NC(=O)Nc2cccc(OCc3cc(=O)n4ccccc4n3)c2)cc1 100%
Cn1c(SCC(N)=O)nnc1-c1cc2ccccc2o1 98.6%
COc1ccc2oc(=O)cc(-c3cc4ccccc4o3)c2c1 104%
Cc1ccc([N+](=O)[O-])cc1S(=O)(=O)n1c(SCc2ccccc2F)nc2ccccc21 104%
